{"source": "ChEMBL document CHEMBL5726084", "about": "“Substituted 2-azabicycles and their use as orexin receptor modulators” (2017)", "assay": "Receptor Radioligand Binding Assay: Human Embryonic Kidney 293 cells (HEK293) stably expressing rat orexin 1 receptor (Genebank accession number NM_001525) or Chinese ovary cells (CHO) stably expressing human orexin 1 receptor (Genebank accession number NM_001526) were grown to confluency in DMEM (Hyclone, cat # SH30022), 10% FBS, 1× Pen/Strep, 1× sodium pyruvate, 10 mM HEPES, 600 μg/mL G418 and DMEM/F12 (Gibco, Cat #11039), 10% FBS, 1× Pen/Strep, 600 μg/mL G418 media, respectively on 150 cm2 tissue culture plates, washed with 5 mM EDTA in PBS (HyClone Dulbecco's Phosphate Buffered Saline 1× with Calcium and Magnesium, Cat # SH30264.01, hereafter referred to simply as PBS) and scraped into 50 ml tubes. After centrifugation (2K×G, 5 min at 4° C.), the supernatant was aspirated and the pellets frozen and stored at −80° C. Cells were resuspended in PBS in the presence of 1 tablet of protease inhibitor cocktail (Roche, Cat. #11836145001) per 50 mL. Each cell pellet from a 15 cm plate was resuspended in 10 mL, stored on ice, and homogenized for 45 sec prior to addition to the reactions. Competition binding experiments in 96 well polypropylene plates were performed using [3H] […]"}
{"smiles": "CC1C2CC(Oc3ccc(C(F)(F)F)cn3)C(C2)N1C(=O)c1ccccc1-n1nccn1", "note": "(racemic)", "values": [{"measurement": "Ki", "value": "> 10", "unit": "µM"}]}
